One data set deals with bone absorption. The data set is described as follows: Bone absorption effect: increase in serum 45Ca radioactivity in 45Ca-labelled rats, continuous oral dosing (Example 31, FIG. 6). The data set is classed as in vivo, Male wistar rats. Conditions: on the eighth day. From the text:
Male wistar rats (each with a body weight of about 150 g) were subcutaneously administered with an aqueous solution of ^45 CaCl2 in a dose of 50 μCi per rat, and kept for 6 weeks. ^45 Ca so administered was rapidly absorbed, and a greater portion of it gathered at the bones in several hours. Three weeks later, the ^45 Ca level in blood became constant, and only the bones were in the specifically labelled state. This was confirmed by a macroautoradiographic analysis of the whole body. […] Blood was taken out with the passage of time, and the serum radioactivity level was measured by the method described in Example 29 (a). An increase in the serum radioactivity level was made an index of the effect of bone absorption. The control group was administered with corn oil alone. The number of rats tested was 4 in each group. In this figure, the symbol * indicates a significant difference in serum radioactivity level from the control.

Another data set has as its system Mouse. The following applies: from Table 6; in words. The protocol:
The toxicity of each of the above two compounds was tested by a well known method.

Consider `C=C1/C(=C\C=C2/CCC[C@]3(C)[C@@H]([C@H](C)CCC(O)C(C)C)CC[C@@H]23)C[C@@H](O)C[C@@H]1O` (stereo partly drawn) [1α,24-DHCC, 1α,24-dihydroxycholecalciferol], for which the “degree of increase of bone absorption relative to 1α-HCC” value with bone absorption was “about 1/3”. For the same compound, the “toxicity relative to 1α-HCC” value in the data set with Mouse was “one-tenth or less of that of 1α-HCC”.

(Values after US4022891A (priority 1974, dated 1977).)
